{
  "sequences": {"note": "The chains behind the UniProt entries cited, without tags or fusion partners.", "UniProt P25440, whole entry": "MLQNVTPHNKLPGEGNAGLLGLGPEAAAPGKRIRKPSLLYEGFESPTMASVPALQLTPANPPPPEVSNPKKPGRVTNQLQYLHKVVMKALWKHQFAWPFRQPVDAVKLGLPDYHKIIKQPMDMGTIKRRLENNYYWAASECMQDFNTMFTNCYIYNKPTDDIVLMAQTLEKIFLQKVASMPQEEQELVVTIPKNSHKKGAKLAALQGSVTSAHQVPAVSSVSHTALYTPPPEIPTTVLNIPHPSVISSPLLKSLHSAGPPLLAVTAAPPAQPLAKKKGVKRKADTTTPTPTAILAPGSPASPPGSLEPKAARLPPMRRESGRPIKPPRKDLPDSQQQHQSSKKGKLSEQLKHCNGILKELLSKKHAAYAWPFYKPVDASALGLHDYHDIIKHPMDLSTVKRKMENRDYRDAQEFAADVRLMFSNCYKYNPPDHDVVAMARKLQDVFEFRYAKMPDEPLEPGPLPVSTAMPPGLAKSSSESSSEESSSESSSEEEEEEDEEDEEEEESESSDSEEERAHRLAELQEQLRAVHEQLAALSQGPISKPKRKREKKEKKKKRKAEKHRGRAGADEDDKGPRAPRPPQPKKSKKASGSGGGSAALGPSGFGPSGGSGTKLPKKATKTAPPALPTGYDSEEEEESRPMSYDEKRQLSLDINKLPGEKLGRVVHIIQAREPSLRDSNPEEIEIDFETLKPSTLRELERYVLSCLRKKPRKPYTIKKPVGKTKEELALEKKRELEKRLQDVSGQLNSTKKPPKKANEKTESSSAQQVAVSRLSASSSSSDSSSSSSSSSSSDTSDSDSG"},
  "source": "ChEMBL document CHEMBL5346911",
  "about": "“From PROTAC to inhibitor: Structure-guided discovery of potent and orally bioavailable BET inhibitors” (Eur J Med Chem, 2023)",
  "key": {"[1]": {"target": "T1, Bromodomain-containing protein 2 (Homo sapiens, UniProt P25440)", "experiment": "Inhibition of BRD2 BD2 (unknown origin) by TR-FRET assay"}, "[2]": {"target": "T1, Bromodomain-containing protein 2", "experiment": "Inhibition of BRD2 BD1 (unknown origin) by TR-FRET assay"}},
  "data": [
    {"smiles": "Cc1sc2c(c1C)C(c1ccc(Cl)cc1)=N[C@@H](CC(=O)Nc1ccc(O)cc1)c1nnc(C)n1-2", "note": "[BIRABRESIB]", "values": [
      {"measurement": "IC50", "setting": "[1]", "result": 3, "unit": "nM"},
      {"measurement": "IC50", "setting": "[2]", "result": 58, "unit": "nM"}
    ]}
  ]
}
